Tested on: HDMEC monolayers
Assay: Trans-endothelial transport assay across HDMEC monolayers
Assay type: in vitro ADME, human
Details: LOCI read-out, n=3–4; for Amount accumulated0-15min /amount accumulated0-60min (%): HDMEC monolayers, receiver chamber, HBSS pH 7.4, 37°C, mean±SD

human insulin
Apparent permeability (Papp) (HDMEC monolayers on fibronectin-coated Transwell polyester filters (0.4 μm), donor to receiver, samples of Table II diluted 1:1 in HBSS, 10 mM HEPES, 0.1% ovalbumin, 0.005% Tween 20, pH 7.4, 60 min, 37°C, 5% CO2, 30 rpm, mean): 3.2 ×10⁻⁶ cm/s
Amount accumulated0-15min /amount accumulated0-60min (%): 18.1±0.9%
Amount accumulated0-15min /amount accumulated0-60min (%) (listed as human insulin): 18.1%

From paper PMC6373292 (Pharmaceutical Research, 2019)
